# AlphaSeq binding of Ab-14 light chain variants to a spike HR2 peptide

Antigen: PDVDLGDISGINAS, a 14-residue peptide of the SARS-CoV-2 spike HR2 region.

Parent: Ab-14, a human scFv built as VH, the linker GGGGSGGGGSGGGGS, VL. Only the CDRs of the light chain vary.
VH: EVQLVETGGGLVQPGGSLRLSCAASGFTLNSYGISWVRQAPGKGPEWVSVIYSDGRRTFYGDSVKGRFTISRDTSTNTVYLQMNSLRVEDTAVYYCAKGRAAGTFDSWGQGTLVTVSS
VL: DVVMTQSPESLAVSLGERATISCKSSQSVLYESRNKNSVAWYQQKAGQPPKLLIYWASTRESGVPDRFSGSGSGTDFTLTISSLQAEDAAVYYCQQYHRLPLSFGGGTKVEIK

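The parent was found by panning a naive human phage display library on the peptide. Library AAYL50 holds single substitutions and randomly drawn double and triple substitutions in the CDRs. The scFvs were displayed on barcoded MATa yeast, the peptide on MATalpha yeast. Binding brings cells together so that they mate, and sequencing counts the barcode pairs among the diploids. The ratio of observed to expected reads was calibrated, replicate by replicate, on BCL2-family standards whose Kd was known from biolayer interferometry. Each pool was mated in three replicate cultures.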

Variants are written as CDR1, CDR2 and CDR3 of the light chain (limits as in the source). Parent: KSSQSVLYESRNKNSVA, WASTRES, QQYHRLPLS.
The read-out is the apparent dissociation constant on a log10 scale (nM): the lower, the stronger.
Replicates are averaged; those with no signal do not enter the mean.
Where no diploid with the target was found in any replicate, the entry reads "no signal": below detection, most likely a poor binder, though not proof of it.
Empty control strains, which show no peptide, gave a signal in 18% of pairings with library AAYL50; the median was 4.19 and 95% of these signals were weaker than 2.99. No background was subtracted. The control count says in how many pairings with the empty strains this scFv gave a signal.

CDR-L1 | CDR-L2 | CDR-L3 | mean, log10 nM | seen in | control signals
KSSQSVLYESRNKNSVA | WAYHRES | QQYHRLPLS | 2.01 | 3 of 3 | 0 of 9
KSDVSVLYESRNKNSVA | WASTRES | QQYHRRPLS | 3.32 | 1 of 3 | 1 of 9
KSSQSVLYESRNKNLVA | WASTRES | QIYHRGPLS | 4.97 | 1 of 3 | 0 of 9
KSSQSVLYESRNKNSVN | HASTKES | QQYHRLPLS | 3.06 | 1 of 3 | 2 of 9
KSSQSVLNESHNKNSVA | WASTRES | QQYHRLPPS | 1.66 | 3 of 3 | 7 of 9
KSSQSMLIESRNKNSVA | WASTRES | QQYHRLPLS | 0.57 | 3 of 3 | 1 of 9
KSSQSVLYESDNKNSWA | WASTRES | QQYHRLPLS | 2.70 | 1 of 3 | 1 of 9
KSSQSVLYESRYKNSVA | LASTRES | QKYHRLPLS | 5.00 | 1 of 3 | 1 of 9
KSSQSVLYESRNKNSVA | DASTRES | QQYMRLPLS | -0.36 | 3 of 3 | 5 of 9
KSSQQVLYESRNWNSVA | WQSTRES | QQYHRLPLS | 4.67 | 2 of 3 | 7 of 9
KSSQSVLYESFNKNTVS | WASTRES | QQYHRLPLS | 0.89 | 3 of 3 | 3 of 9
KSSQSVLYQSCNKNSVA | WASTRES | QAYHRLPLS | 4.58 | 2 of 3 | 5 of 9
KSSQSVLYESRNKNSVA | WASTRES | QRYHRLPLG | 3.47 | 1 of 3 | 3 of 9
KSSQSVKYESRNKNSVC | VASTRES | QQYHRLPLS | 2.86 | 1 of 3 | 1 of 9
KSSISVIYRSRNKNSVA | WASTRES | QQYHRLPLS | no signal | 0 of 3 | 0 of 9
KSSGSVLYESRHKNSVA | WASTRET | QQYHRLPLS | 1.11 | 3 of 3 | 1 of 9
KSSPSVLYESRNKYSVA | WASTRES | QQYHRLPLS | 1.10 | 3 of 3 | 5 of 9
KSIRSVLYEWRNKNSVA | WASTRES | QQYHRLPLS | 3.77 | 1 of 3 | 0 of 9
KSSQSFLYESRNKNSVA | WASTRES | QQAHRLTLS | 4.27 | 2 of 3 | 2 of 9
KMSQSVLYESRNKNSVA | WASTRES | EQYHREPLS | no signal | 0 of 3 | 0 of 9
KSSQSVLYESRNYNSVA | WASMRES | QQYHRPPLS | 5.63 | 2 of 3 | 3 of 9
KSSQSVLYESRNKNSVA | WKSARES | QQYHFLPLS | 4.12 | 2 of 3 | 3 of 9
KSSQSVLYESRNKNSVA | MASTRES | QVAHRLPLS | 1.62 | 3 of 3 | 2 of 9
KSSQSVLYEMRNKNSVA | WASTRDS | QQYHRLPLS | 1.31 | 3 of 3 | 2 of 9
KSSQNVTYESRNKMSVA | WASTRES | QQYHRLPLS | 1.16 | 3 of 3 | 2 of 9
KSSYSVLYESRNKNGVA | WGSTRES | QQYHRLPLS | 2.27 | 3 of 3 | 0 of 9
KSSQRVAYESRNKNSVA | VASTRES | QQYHRLPLS | 4.01 | 2 of 3 | 2 of 9
KSSATVLYESRNKNSVA | WASTRES | QHYHRLPLS | 3.29 | 3 of 3 | 4 of 9
KSSDSVLYESRNKNSVA | AASTRES | QNYHRLPLS | 1.52 | 3 of 3 | 1 of 9
KSSQSVLYESSNKNSVA | WASTRES | PQEHRLPLS | 0.10 | 3 of 3 | 0 of 9
KSSYSVLYESRLKNSVA | WASTRES | QQYHRLPLS | 1.46 | 3 of 3 | 2 of 9
KSSQSVLPESRNKNSVV | WAATRES | QQYHRLPLS | 3.82 | 1 of 3 | 0 of 9
TSSQSVLYESRNKQNVA | WASTRES | QQYHRLPLS | no signal | 0 of 3 | 0 of 9
KSSQSVLYESRMKNSVA | WDSTRES | QQYHRSPLS | 0.87 | 3 of 3 | 2 of 9
KSSQSVLYESRNKNSVA | WASTRKS | QQYTRLPLF | no signal | 0 of 3 | 1 of 9
KSSQSVLYESREKNSVA | WASTVES | QQYHRLPLS | 4.94 | 3 of 3 | 4 of 9
KSSQSVLYESRNANSVA | WASTYES | QQYHRRPLS | no signal | 0 of 3 | 3 of 9
KSSQSCLYKSRNKCSVA | WASTRES | QQYHRLPLS | no signal | 0 of 3 | 0 of 9

Second part, the sequence after the result:

mean, log10 nM | seen in | control signals | CDR-L1 | CDR-L2 | CDR-L3
2.92 | 3 of 3 | 0 of 9 | KSSQSVTYEMRNKNSVA | WASTRES | QQHHRLPLS
2.16 | 3 of 3 | 3 of 9 | ASSQQVLYESRNKNSVA | WASTRES | QQYHRLNLS
no signal | 0 of 3 | 0 of 9 | KSSQSVLYESRNKNSVA | WASTDSN | QQYHRLPLS
5.21 | 1 of 3 | 1 of 9 | KSSQSVLYESRNKNSVA | WQRTRIS | QQYHRLPLS
no signal | 0 of 3 | 0 of 9 | KSSQSVLYMSRNKNSVA | WNSTRES | QQNHRLPLS
1.79 | 3 of 3 | 3 of 9 | KSSQLVLYESRNKNSVA | WASTREK | QQYHRLPFS
4.66 | 1 of 3 | 2 of 9 | KSSQSVLYESRWKNSVA | WASTVES | QQYHRLPLP
no signal | 0 of 3 | 0 of 9 | KLSQSVLYESRNKNSVG | WASTRES | QQYHRLPMS
4.31 | 1 of 3 | 1 of 9 | KSSQSVLYESRNSKSVA | WASTRES | QQYHRDPLS
0.70 | 3 of 3 | 3 of 9 | KASQSVLYESRNKNSVA | WASTRES | QQYHRLALS
3.63 | 1 of 3 | 1 of 9 | KSSQSVLYESRNKNSVA | WASTRER | QQYHALMLS
no signal | 0 of 3 | 1 of 9 | KSSQSVLYESRNKNSVA | WASTREF | QQYTRLPQS
no signal | 0 of 3 | 1 of 9 | KSSQSVLSESRNKNSVA | WAFTRES | LQYHRLPLS
1.92 | 3 of 3 | 4 of 9 | KSSQHVLYESRNKNAVA | WASTRES | QQYHRAPLS
2.27 | 3 of 3 | 1 of 9 | KSSQSVLYEWRNKNSVA | WASCRES | QQYHRLTLS
3.33 | 2 of 3 | 2 of 9 | KSSQSVLYESRDKNSVA | WAMTRES | QQYHRLRLS
3.59 | 2 of 3 | 0 of 9 | KSSQSVAYESRNKNSVA | WASTRES | QQYGRLPLS
1.36 | 3 of 3 | 3 of 9 | KSSQSVCYESRNRNSVA | WASTRES | QQYHPLPLS
no signal | 0 of 3 | 0 of 9 | KSSQSVLYESRNKPSVA | WYSTRES | QQYMRLPLS
no signal | 0 of 3 | 3 of 9 | KSSFSVLYERRNKNSVI | WASTRES | QQYHRLPLS
no signal | 0 of 3 | 1 of 9 | KSSQSKLYESRNDNSVA | WASTRES | QQYHRLYLS
4.51 | 2 of 3 | 4 of 9 | KSRQSVLYESRNKNSVA | WARTREN | QQYHRLPLS
5.17 | 3 of 3 | 2 of 9 | KSSASVLYESRNKNSVA | WAHTRES | QQMHRLPLS
6.23 | 1 of 3 | 4 of 9 | KSSQSVLYMGRNKNSVA | WASRRES | QQYHRLPLS
0.83 | 3 of 3 | 4 of 9 | KSSQSVLYESRNKPAVA | WASMRES | QQYHRLPLS
3.98 | 1 of 3 | 1 of 9 | KSSQSVLYESRNKNSLM | WASTRES | QIYHRLPLS
2.00 | 3 of 3 | 3 of 9 | KSYQSVLYEQRNKNSVA | WASHRES | QQYHRLPLS
0.61 | 3 of 3 | 1 of 9 | KSSQSVDYESSNKNSVA | WASTRES | QQYHRMPLS
no signal | 0 of 3 | 1 of 9 | KSSQSVLYESRNKESVA | WASTRTS | QQYHRFPLS
1.48 | 3 of 3 | 8 of 9 | KSSQSVENESRNPNSVA | WASTRES | QQYHRLPLS
no signal | 0 of 3 | 1 of 9 | KSSQSVLGHSRNKNVVA | WASTRES | QQYHRLPLS
0.71 | 3 of 3 | 6 of 9 | KSSQSVLEESRNKNSVA | WASTRES | QQLHRLPWS
1.17 | 3 of 3 | 1 of 9 | KSSESCLYESRNHNSVA | WASTRES | QQYHRLPLS
no signal | 0 of 3 | 3 of 9 | KSSQSVLYESRNKNSVA | WAPTIES | MQYHRLPLS
0.81 | 3 of 3 | 2 of 9 | KSSQFVLDESRNKNTVA | WASTRES | QQYHRLPLS
0.82 | 3 of 3 | 2 of 9 | KHSQSVLYESRNKNSVA | WASTRES | QQYHRLPVS
5.53 | 2 of 3 | 4 of 9 | KSSQSVLYESRNKNSVA | WKSTVES | QVYHRLPLS
0.75 | 3 of 3 | 3 of 9 | KSSQSVKYESRNKNSVA | WASTREQ | QQYLRLPLS

Excerpt, the first 4 entries:

| CDR-L1 | CDR-L2 | CDR-L3 | mean, log10 nM | seen in | control signals |
|---|---|---|---|---|---|
| KSSQSVLYESRNKNSVA | WAYHRES | QQYHRLPLS | 2.01 | 3 of 3 | 0 of 9 |
| KSDVSVLYESRNKNSVA | WASTRES | QQYHRRPLS | 3.32 | 1 of 3 | 1 of 9 |
| KSSQSVLYESRNKNLVA | WASTRES | QIYHRGPLS | 4.97 | 1 of 3 | 0 of 9 |
| KSSQSVLYESRNKNSVN | HASTKES | QQYHRLPLS | 3.06 | 1 of 3 | 2 of 9 |

Data: MIT Lincoln Laboratory AlphaSeq set, Engelhart et al. 2022, doi:10.1038/s41597-022-01779-4, as distributed in FLAb.